Biological target: Human recombinant PTP1B (Homo sapiens, UniProt P18031)
Experiment: Inhibition of tri-phosphorylated insulin receptor dodecaphosphopeptide dephosphorylation by hPTP1B
Type: biochemical

The chains behind the UniProt entries cited, without tags or fusion partners. Where a name states a change or a piece, a line headed by the entry shows the natural chain unless it says otherwise.
UniProt P18031: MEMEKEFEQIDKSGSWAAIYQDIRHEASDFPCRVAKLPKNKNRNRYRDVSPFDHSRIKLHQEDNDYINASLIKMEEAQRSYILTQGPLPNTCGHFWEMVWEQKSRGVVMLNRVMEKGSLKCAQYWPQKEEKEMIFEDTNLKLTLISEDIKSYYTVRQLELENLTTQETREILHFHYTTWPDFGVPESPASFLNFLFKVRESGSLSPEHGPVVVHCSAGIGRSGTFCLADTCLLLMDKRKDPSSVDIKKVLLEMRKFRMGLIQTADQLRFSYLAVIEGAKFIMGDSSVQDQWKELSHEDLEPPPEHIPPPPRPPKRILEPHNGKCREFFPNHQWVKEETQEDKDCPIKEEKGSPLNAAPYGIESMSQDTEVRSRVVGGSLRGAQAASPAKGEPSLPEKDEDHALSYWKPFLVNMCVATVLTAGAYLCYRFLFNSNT

## Ammonium molybdate tetrahydrate
  IC50: 8.7 µM
